Tests used:
[1] = Selectivity ratio of IC50 for recombinant human AChE to IC50 for recombinant Aedes aegypti AChE1
Procedure, shortened: (§1)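 Ratio = IC50 for hAChE divided by the higher of the IC50 values for AaAChE1 and AgAChE1. All IC50 values came from the Ellman assay with secreted recombinant enzymes.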

[2] = Selectivity ratio of IC50 for recombinant human AChE to IC50 for recombinant Anopheles gambiae AChE1; procedure, shortened: as §1

Structure (SMILES): CCN1CCN(C2CCN(C(=O)COc3ccc(-c4ccccc4)cc3)CC2)CC1
- Ratio IC50 [1]: 141
- Ratio IC50 [2]: 141

Source: ChEMBL document CHEMBL4265992, “Noncovalent Inhibitors of Mosquito Acetylcholinesterase 1 with Resistance-Breaking Potency” (J Med Chem, 2018)
